Data on 2 molecules can be found in publication PMC11966747, “Next Generation Risk Assessment of Acute Neurotoxicity from Organophosphate Exposures Using the In Vitro–In Silico Derived Dietary Comparator Ratio” (Environmental Science & Technology, 2025).

By UniProt entry, the sequences of proteins in these tests, tags left out. Residues count along the entry.
UniProt P22303, 32-617 isoform P22303-2 limits assumed: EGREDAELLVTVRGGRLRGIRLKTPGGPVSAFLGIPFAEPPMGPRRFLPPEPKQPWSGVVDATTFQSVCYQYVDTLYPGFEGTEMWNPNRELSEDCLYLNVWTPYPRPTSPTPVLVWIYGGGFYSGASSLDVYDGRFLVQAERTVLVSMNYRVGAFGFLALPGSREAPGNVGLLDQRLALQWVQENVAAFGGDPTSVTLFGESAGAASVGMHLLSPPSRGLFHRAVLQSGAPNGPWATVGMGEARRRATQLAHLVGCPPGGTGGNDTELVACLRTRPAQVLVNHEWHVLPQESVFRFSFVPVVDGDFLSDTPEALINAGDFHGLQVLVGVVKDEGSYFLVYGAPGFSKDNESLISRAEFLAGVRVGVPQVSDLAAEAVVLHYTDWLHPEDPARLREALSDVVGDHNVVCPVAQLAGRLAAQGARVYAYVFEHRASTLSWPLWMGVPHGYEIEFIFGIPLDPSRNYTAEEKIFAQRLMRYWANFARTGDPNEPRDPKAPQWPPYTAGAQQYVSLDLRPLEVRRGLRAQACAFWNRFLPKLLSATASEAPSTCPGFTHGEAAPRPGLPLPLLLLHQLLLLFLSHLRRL

Like-named read-outs stand apart in the source and are kept apart here.

For data set [1], the target named is T1, erythrocyte AChE (Homo sapiens, UniProt P22303). The data set can be described thus: Exposure Activity Ratio (EAR) and Dietary Comparator Ratio (DCR) calculation. On the set-up: from tissue; host or cells: human whole peripheral blood (erythrocytes), K2EDTA anticoagulant. As to the method: The DCR value for an exposure scenario was calculated as the ratio of EARtest and EARcomparator (eq 1). The EARtest is scenario-specific and was defined with the IC50 of the tested organophosphate oxon for in vitro erythrocyte AChE inhibition and the PBK model-simulated CBmaxoxon at the defined exposure level (eq 2).
The DCR-based predictions were evaluated by comparing the obtained DCR results with actual knowledge of the adverse health effects reported for the respective exposure scenarios. Adverse effects cannot be ruled out for human exposure scenarios with a DCR result greater than 1, while exposure scenarios with a DCR result less than or equal to 1 are considered to raise no safety concern.[18]−[20] Once validated as an adequate predicting tool, the DCR approach was applied for evaluating the safety of exposure scenarios, for which no information on the resulting toxic outcomes was reported at the defined dose levels for humans.

Data set [2] concerns the target T1, erythrocyte AChE. To be noted: cited from earlier work.
Setting [3] is: single oral 286 mg/kg BW, ref Table S2, 286 mg/kg.

For the molecule `COP(=S)(OC)Oc1ccc([N+](=O)[O-])c(C)c1` [fenitrothion], the figures for the “calculated DCR value” on erythrocyte AChE [1] (single oral 286 mg/kg BW) and on erythrocyte AChE [1] (single oral 714 mg/kg BW) were 1005 and 1949, respectively. Further, the figures for the “calculated EARtest value” on erythrocyte AChE [1] (single oral 286 mg/kg BW) and at erythrocyte AChE [1] (single oral 714 mg/kg BW) were 39.69 and 76.95, respectively. The “reported or expected adverse health outcome” value at erythrocyte AChE [2] (setting [3]) was “positive”; on erythrocyte AChE [2] (single oral 286 mg/kg BW, ref Table S2, listed as Fenitrothion, 286 mg/kg), “Yes”; at erythrocyte AChE [2] (single oral 714 mg/kg BW, ref Table S2, 714 mg/kg), “positive”; on erythrocyte AChE [2] (single oral 714 mg/kg BW, ref Table S2, listed as Fenitrothion, 714 mg/kg), “Yes”.
Turning to `CCOP(=S)(OCC)Oc1nc(Cl)c(Cl)cc1Cl` [chlorpyrifos], on erythrocyte AChE [1] (single oral 286 mg/kg BW), the “calculated DCR value” is given as 40 and the “calculated EARtest value” is listed as 1.57. Moreover, the “reported or expected adverse health outcome” value at erythrocyte AChE [2] (setting [3]) was “positive”. Besides, on erythrocyte AChE [2] (single oral 286 mg/kg BW, ref Table S2, listed as Chlorpyrifos, 286 mg/kg), the “reported or expected adverse health outcome” value is “Yes”.
